uPA surface inh: blocks generation of uPA at the cell surface; cell surface uPA generation assay, qHTS; Potency, µM (doses to about 38.3 µM), without a hit: top-dose activity change, negative = inhibition, most hits filed as inhibitors; hit rate 0.31% among 330,000; AID 540303; active = well fitted inhibition curve with a large enough effect; inconclusive = small, poorly fitted or top-dose-only effect; inactive = no such curve, though single readings can be large or run the other way; tested in mouse RAW 264.7 cells; note: potency is the fitted concentration of half-maximal effect; % is set by controls: 0 for no effect and ±100 for the full control effect; nearly all actives have a fitted effect of over 55% in size
TDP1 cell noCPT: qHTS for Inhibitors of human tyrosyl-DNA phosphodiesterase 1 (TDP1): qHTS in cells in absence of CPT | DT40 Tdp1-/- hTDP1 cells, no CPT, ATP luminescence, 48 h | Potency, µM (top dose mostly 46.2 µM), for the others: at the top dose activity change, negative = growth inhibition, most hits filed as inhibitors | AID 686978, 2013 | hit rate 15% among 420,000; note: potency is the fitted concentration of half-maximal effect; % is set by controls: 0 for no effect and ±100 for the full control effect; nearly all actives have a fitted effect of over 55% in size
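DT40 Tdp1-/-;hTDP1 cells, no CPT (DMSO vehicle only), 400 cells/well; compounds pin-transferred; ≥48 hr, 37 °C; CellTiter-Glo 30 min RT dark, luminescence read.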
DT40 TDP1 CPT: DT40-hTDP1 cell growth loss with CPT. Potency, µM (titrated, usually from 46.2 µM), inactives show top-dose activity change, negative = growth inhibition, usual class: inhibitors. chicken DT40 Tdp1-/-;hTDP1 cells + 20 nM CPT, ATP luminescence, 48 h. hit rate 12% among 420,000. AID 686979; note: potency is the fitted concentration of half-maximal effect; % is set by controls: 0 for no effect and ±100 for the full control effect; nearly all actives have a fitted effect of over 55% in size
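Chicken DT40 Tdp1-/- cells stably complemented with human TDP1 were seeded at 400 cells/well in medium containing 20 nM camptothecin, exposed to pin-transferred compounds, and grown at 37 °C for at least 48 hr. Viability was read as ATP luminescence.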
TDP1 block: inhibitors of human tyrosyl-DNA phosphodiesterase TDP1. hit rate 0.28% among 350,000. AID 485290. Q9NUW8. recombinant TDP1, AlphaScreen DNA substrate cleavage. Potency, µM (series often up to 130 µM), for inactives: top-dose activity change, negative = inhibition, most hits filed as inhibitors; note: potency is the fitted concentration of half-maximal effect; % is set by controls: 0 for no effect and ±100 for the full control effect; nearly all actives have a fitted effect of over 40% in size
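Recombinant E. coli-expressed Tdp1 (1 nM) preincubated with compound 15 min at RT, then 5'-biotin/3'-phosphotyrosine-FITC DNA substrate (15 nM) added for 5 min. AlphaScreen beads (10 ug/ml) added, 10 min RT; tyrosine-FITC cleavage read as signal loss.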
miR-21 reporter: raises the signal of a miR-21 reporter | AID 2288 | 340,000 tested, under 10 active | Potency, µM (series often up to 38.3 µM), without a hit: at the highest dose reporter change, positive = more light | HeLa miR-21 FLuc reporter, luciferase, 48 h; active = well fitted rising curve with a large enough effect; inconclusive = small, poorly fitted or top-dose-only effect; inactive = no such curve, though single readings can be large or run the other way;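 further: % of control where 0% means no effect; miR-21 action dims this reporter so a rising signal means less miR-21 action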
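HeLa cells endogenously expressing miR-21, stably carrying CMV-driven firefly luciferase with a downstream miR-21 binding site, 2000 cells/well. Titrations up to approximately 40 uM, 48 hours; luciferase luminescence read.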
Active calls of the source: *; ? = inconclusive; · = no result given. This is a sample that favours compounds with a hit; in the whole collection about 16% have one here. Unless noted, calls come from the whole dose curve; as a rule, active = well fitted curve in the direction sought with a large enough effect; inconclusive = small, poorly fitted or top-dose-only effect, or another doubt; inactive = no such curve, though single readings can be large; an effect the other way counts as inactive or inconclusive.

cpd	molecule	uPA surface inh	TDP1 cell noCPT	DT40 TDP1 CPT	TDP1 block	miR-21 reporter
1	CCC(C)(C)C1CCC2(CC1)NC(=O)N(CC(=O)NCCOc1ccccc1)C2=O (configuration not stated)	14%	?	?	1%	·
2	COc1ccccc1NC(=O)C/C(C)=N/NC(=O)C12CC3CC(CC(C3)C1)C2	1%	-2%	?	8%	-38%
3	COc1ccc(CCNC(=O)CCN2C(=O)C3CC=CCC3C2=O)cc1OC (configuration not stated)	2%	23µM*	?	-2%	-3%
4	COc1ccc(CCNC(=O)CCn2cccc2)cc1OC	-5%	-8%	7%	5%	-4%
5	O=C(c1ccc2c(=O)n3c(nc2c1)CCC3)N1CCN(S(=O)(=O)c2ccccc2Br)CC1	-1%	-6%	0%	·	·
6	CC1CCN(S(=O)(=O)c2ccc(S(=O)(=O)NCC3COCCO3)cc2)CC1 (configuration not stated)	·	-2%	-4%	6%	-3%
7	NCCCC[C@H]1CN=C(N)N1CCC12CC3CC(CC(C3)C1)C2	-3%	?	?	-2%	2%
8	O=[N+]([O-])c1cc(C(F)(F)F)cc([N+](=O)[O-])c1NCCNC(=S)Nc1cccc(F)c1	?	26µM*	?	3%	?
9	Fc1ccc(CNC(=S)Nc2cccc(C(F)(F)F)c2)cc1	3%	18µM*	?	3%	?
10	Fc1cccc(NC(=S)NCc2ccc(Cl)cc2)c1	-4%	?	?	0%	13%
11	CSc1ccccc1NC(=S)Nc1cccc(C(F)(F)F)c1	-5%	-28%	-30%	7%	1%
12	Fc1ccccc1CNC(=S)Nc1cccc(C(F)(F)F)c1	0%	23µM*	?	-1%	25%
13	Nc1nonc1-n1nnc(C(=O)N/N=C/C2CC=CCC2)c1CSc1ccccc1 (configuration not stated)	2%	-6%	3%	·	3%
14	O=C1CCCC2=C1C(c1ccco1)Nc1ccc(C(=O)c3ccccc3)cc1N2 (configuration not stated)	-11%	12µM*	15µM*	3%	19%
15	O=C1NC2=C(C(=O)CCC2)C(c2ccccc2)N1 (configuration not stated)	5%	-23%	-3%	-6%	6%
16	COc1ccc(C(=O)c2c(C(F)(F)F)oc3c2C(=O)c2ccccc2C3=O)cc1	-10%	7.3µM*	4.6µM*	12%	7%
17	CCOC(=O)C1=C(C)NC(C)=C(C(=O)OCC)C1c1ccc(Br)o1	2%	23µM*	9.2µM*	4%	0%
18	CCOC(=O)C1=C(C)NC(C)=C(C(=O)OCC)C1c1ccc(OC)cc1	-3%	23µM*	15µM*	0%	2%
19	CCOC(=O)C1=C(N)OC2=C(C(=O)CCC2)C1c1ccccc1OC (configuration not stated)	5%	14%	0%	-2%	-2%
20	COc1ccc(-c2nnn(CC(=O)N(CCO)C(C(=O)NC3CCCC3)c3ccncc3)n2)cc1 (configuration not stated)	0%	-22%	0%	-3%	-4%
21	COC(=O)C1CCN(C(=O)/C=C/c2ccc(OC)cc2)CC1	-5%	?	-30%	0%	-11%
22	O=C1CCC2CN3CCc4c([nH]c5ccccc45)C3CC2C1 (configuration not stated)	·	21µM*	?	·	·
23	O=C(O)[C@@H]1[C@H]2C[C@H]3c4[nH]c5ccccc5c4CCN3C[C@@H]2CC[C@@H]1O	12%	-1%	-9%	·	·
24	CN1/C(=C\C(=O)C[n+]2ccc3ccccc3c2)C(C)(C)c2ccccc21	-3%	0.29µM*	0.65µM*	-3%	29%
25	Cc1noc(C)c1C(=O)OCC(=O)/C=C1/N(C)c2ccccc2C1(C)C	5%	12µM*	?	·	·
26	CN1/C(=C\C(=O)COc2ccc3c(c2)OCO3)C(C)(C)c2ccccc21	1%	8.2µM*	8.2µM*	5%	3%

Sorted by count of non-hydrogen atoms (rising): part of the list above
cpd	molecule	uPA surface inh	TDP1 cell noCPT	DT40 TDP1 CPT	TDP1 block	miR-21 reporter
21	COC(=O)C1CCN(C(=O)/C=C/c2ccc(OC)cc2)CC1	-5%	?	-30%	0%	-11%
16	COc1ccc(C(=O)c2c(C(F)(F)F)oc3c2C(=O)c2ccccc2C3=O)cc1	-10%	7.3µM*	4.6µM*	12%	7%
13	Nc1nonc1-n1nnc(C(=O)N/N=C/C2CC=CCC2)c1CSc1ccccc1 (configuration not stated)	2%	-6%	3%	·	3%
20	COc1ccc(-c2nnn(CC(=O)N(CCO)C(C(=O)NC3CCCC3)c3ccncc3)n2)cc1 (configuration not stated)	0%	-22%	0%	-3%	-4%

Screening results (PubChem)
